Here are results for two compounds from PubChem BioAssay AID624466 (The Scripps Research Institute Molecular Screening Center, 2012).

Protein sequences, listed by entry. Tags and fused reporters are not part of them.
UniProt Q96RJ0, whole entry: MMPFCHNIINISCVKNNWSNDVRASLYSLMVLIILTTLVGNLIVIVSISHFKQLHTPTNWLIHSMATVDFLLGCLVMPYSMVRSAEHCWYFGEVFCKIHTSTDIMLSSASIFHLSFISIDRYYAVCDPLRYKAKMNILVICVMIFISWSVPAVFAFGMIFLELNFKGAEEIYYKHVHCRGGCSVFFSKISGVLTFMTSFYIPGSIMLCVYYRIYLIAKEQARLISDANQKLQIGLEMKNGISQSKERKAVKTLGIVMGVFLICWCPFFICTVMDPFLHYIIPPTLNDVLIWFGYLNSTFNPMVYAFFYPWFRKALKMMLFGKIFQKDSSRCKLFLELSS

Broadly, the inhibition is the relative decrease from the control value, in per cent.

This is a selection; strong and weak results do not stand in their true shares. Active and inactive are the calls of the source.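 The calls were made as follows: active = inhibition above a per-plate cutoff, the mean inhibition of test compounds on that plate plus 3 SD (cut at about 49% in these data); inactive = the rest.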

The target of this test is Trace amine-associated receptor 1 (Homo sapiens) (UniProt Q96RJ0). The experiment in a line: blockers of beta-PEA-driven TAAR1 calcium signal – Fluo-8 calcium fluorescence, CHO RD-HGA16 cells, primary screen (AID 624466).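 Also: 0% = DMSO plus EC80 beta-PEA response and 100% = DMSO alone without agonist.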 The following applies: CHO RD-HGA16 TAAR1, Fluo-8 calcium fluorescence, antagonist; at 3 µM; hits give high values.
Take `CCC(=O)N(c1ccccc1)C1(COC)CCN(CCn2nnn(CC)c2=O)CC1`: the inhibition is inactive: -14.7%.

As to `CCC(=O)N(c1ccccc1)C1(COC)CCN(CCc2cccs2)CC1`, the inhibition is inactive: 9.28%.
